Reference: patent publication US20230355617A1, “SMALL MOLECULE INHIBITORS OF LEMUR TYROSINE KINASE 3” (The University of Sussex, priority 2020, published 2023)

Protein sequences, listed by entry. Tags and fused reporters are not part of them. Residues count along the entry.
UniProt Q96Q04, 105-415 limits assumed: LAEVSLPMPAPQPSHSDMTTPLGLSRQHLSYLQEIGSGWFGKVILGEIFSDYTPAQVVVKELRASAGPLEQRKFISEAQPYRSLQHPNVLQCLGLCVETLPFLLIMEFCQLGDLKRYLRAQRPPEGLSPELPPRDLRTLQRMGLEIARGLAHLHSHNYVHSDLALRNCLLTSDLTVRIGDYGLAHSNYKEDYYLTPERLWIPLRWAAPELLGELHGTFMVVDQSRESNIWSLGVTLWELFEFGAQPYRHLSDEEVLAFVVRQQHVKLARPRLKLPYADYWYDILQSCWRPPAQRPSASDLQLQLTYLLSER
UniProt Q96Q04, 21-1460 limits assumed: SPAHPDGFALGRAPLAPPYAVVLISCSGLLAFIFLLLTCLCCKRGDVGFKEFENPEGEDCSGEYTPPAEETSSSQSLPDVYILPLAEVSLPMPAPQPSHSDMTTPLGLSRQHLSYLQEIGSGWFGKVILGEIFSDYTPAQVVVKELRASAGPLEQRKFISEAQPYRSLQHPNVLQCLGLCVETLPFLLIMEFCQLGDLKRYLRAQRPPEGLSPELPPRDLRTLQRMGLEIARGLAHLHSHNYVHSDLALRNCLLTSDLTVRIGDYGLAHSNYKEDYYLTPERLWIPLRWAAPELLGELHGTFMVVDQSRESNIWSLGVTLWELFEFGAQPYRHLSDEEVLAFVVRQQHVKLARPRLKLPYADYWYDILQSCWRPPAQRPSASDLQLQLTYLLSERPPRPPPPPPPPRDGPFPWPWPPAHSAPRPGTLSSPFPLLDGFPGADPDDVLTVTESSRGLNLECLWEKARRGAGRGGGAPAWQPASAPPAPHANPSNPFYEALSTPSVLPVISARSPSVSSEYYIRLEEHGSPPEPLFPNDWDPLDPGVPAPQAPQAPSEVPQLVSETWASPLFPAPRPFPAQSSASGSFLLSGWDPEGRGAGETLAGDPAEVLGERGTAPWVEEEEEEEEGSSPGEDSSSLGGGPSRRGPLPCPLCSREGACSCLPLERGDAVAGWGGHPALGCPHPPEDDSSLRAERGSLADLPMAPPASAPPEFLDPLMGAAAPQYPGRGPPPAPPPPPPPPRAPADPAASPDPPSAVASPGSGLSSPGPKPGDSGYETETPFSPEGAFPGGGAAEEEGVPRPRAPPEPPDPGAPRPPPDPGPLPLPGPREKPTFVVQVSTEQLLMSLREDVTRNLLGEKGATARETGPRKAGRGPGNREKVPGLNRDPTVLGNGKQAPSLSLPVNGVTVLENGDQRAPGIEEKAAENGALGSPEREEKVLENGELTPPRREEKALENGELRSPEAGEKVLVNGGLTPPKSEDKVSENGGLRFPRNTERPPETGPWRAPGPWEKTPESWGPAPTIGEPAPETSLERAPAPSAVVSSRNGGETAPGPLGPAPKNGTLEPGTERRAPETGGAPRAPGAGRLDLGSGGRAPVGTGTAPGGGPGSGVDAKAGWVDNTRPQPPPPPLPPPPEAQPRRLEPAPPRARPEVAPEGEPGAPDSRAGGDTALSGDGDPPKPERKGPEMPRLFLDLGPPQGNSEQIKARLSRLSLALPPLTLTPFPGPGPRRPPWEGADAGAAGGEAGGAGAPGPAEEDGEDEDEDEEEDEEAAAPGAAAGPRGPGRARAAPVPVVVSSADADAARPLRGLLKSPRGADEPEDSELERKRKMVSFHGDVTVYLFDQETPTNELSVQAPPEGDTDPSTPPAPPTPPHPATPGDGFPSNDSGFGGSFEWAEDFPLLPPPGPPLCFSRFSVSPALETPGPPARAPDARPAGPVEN

Columns and labels:
LMTK3 [1] = biological target: T1, LMTK3 (Homo sapiens, UniProt Q96Q04); assay: Western blotting of LMTK3 protein in BC cell lines; type: cell-based; conditions: MCF7, T47D, MDA-MB-231
ERα = assay: Western blotting of ERα protein in BC cell lines; type: cell-based, human; conditions: MCF7, T47D, MDA-MB-231
[2] = Mouse microsomal stability assay; conditions: mouse microsomes
LMTK3 [3] = biological target: T1, LMTK3; assay: 32P γ-ATP in vitro kinase assay, phosphorylation of HSP27 by LMTK3; type: biochemical

SMILES: Cc1cc(-c2ccc3ncc(-c4cccc(OC(F)(F)F)c4)n3n2)cc(C)n1
- inhibition of LMTK3 protein levels in cancer cell lines (LMTK3 [1]): best inhibitor
- inhibition of ERα protein levels in cancer cell lines (ERα): best inhibitor
- clearance [2]: medium clearance
- relative inhibition in the in vitro kinase assay (LMTK3 [3]; 500 nM and 1 μM): best inhibitor
- pIC50 (LMTK3 [3]; read-out: Approximate IC50, in vitro kinase assay): 6.46

pIC50: −log10 of the molar value.
